# pKd: −log10 of the molar value. This is a selection: effects in other tests are not listed, and their absence says nothing.
# By UniProt entry, the sequences of proteins in these tests, tags left out. Residues count along the entry.
# UniProt O60674, 849-1124 Y1007F/Y1008F limits assumed: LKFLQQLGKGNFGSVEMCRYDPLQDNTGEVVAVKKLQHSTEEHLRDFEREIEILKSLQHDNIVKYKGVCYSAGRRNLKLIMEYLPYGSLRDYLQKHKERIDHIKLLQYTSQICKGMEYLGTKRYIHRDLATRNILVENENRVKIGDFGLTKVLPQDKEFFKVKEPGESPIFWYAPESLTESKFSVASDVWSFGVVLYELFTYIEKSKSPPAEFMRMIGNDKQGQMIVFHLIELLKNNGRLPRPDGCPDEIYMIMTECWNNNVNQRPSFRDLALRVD
# Molecular target: JAK2 (JH1domain-catalytic, Y1007F,Y1008F) kinase (Homo sapiens (Human), UniProt O60674, Y1007F/Y1008F)
# Test: JAK2 Binding Assay (JAK2 JH1 Domain Binding Assay)
# Settings: read-out: JAK2 Kd, qPCR readout
# Protocol: JAK2 (JH1domain-catalytic, Y1007F,Y1008F) kinase was expressed as N-terminal fusion to the DNA binding domain of NFkB in transiently transfected HEK293 cells and subsequently tagged with DNA for qPCR detection. Streptavidin-coated magnetic beads were treated with biotinylated small molecule ligands for 30 minutes at room temperature to generate affinity resins for kinase assays. The liganded beads were blocked with excess biotin and washed with blocking buffer (SeaBlock (Pierce), 1% BSA, 0.05% Tween 20, 1 mmol/L DTT) to remove unbound ligand and to reduce nonspecific phage binding. Binding reactions were assembled by combining kinases, liganded affinity beads, and test compounds in 1× binding buffer (1×PBS, 0.05% Tween 20, 0.1% BSA, 1 mmol/L DTT). Test compound was prepared as 111× stocks in 100% DMSO and directly diluted into the assay wells. All reactions were performed in polypropylene 384-well plates in a final volume of 0.02 mL. The assay plates were incubated at room temperature with shaking for 1 hour and the affinity beads were washed with wash buffer (1×PBS, 0.05% Tween 20). The beads were then re-suspended in elution buffer (1×PBS, 0.05% Tween 20, 0.5 μmol/L non-biotinylated affinity ligand) and incubated at room temperature with shaking for 30 minutes. The kinase concentration in the eluate was measured by qPCR.
substance,measurement,value
"(R)—N-(4-((2-((5-(tert-butyl)-1-(tetrahydrofuran-3-yl)-1H-pyrazol-3-yl)amino)-1-methyl-1H-imidazo[4,5-b]pyridin-6-0)oxy)pyridin-2-yl)-3-methoxyazetidine-1-carboxamide",pKd,> 8.00

# Reference: patent US11691963B2, “6-heteroaryloxy benzimidazoles and azabenzimidazoles as JAK2 inhibitors” (Ajax Therapeutics, Inc., priority 2020, dated 2023)
